Data published in ChEMBL document CHEMBL3638875, “Pyrazol-4-yl-heterocyclyl-carboxamide compounds and methods of use” (2014).

Sequences of proteins named here, by UniProt entry; tags and fusion partners are left off.
UniProt P11309, whole entry: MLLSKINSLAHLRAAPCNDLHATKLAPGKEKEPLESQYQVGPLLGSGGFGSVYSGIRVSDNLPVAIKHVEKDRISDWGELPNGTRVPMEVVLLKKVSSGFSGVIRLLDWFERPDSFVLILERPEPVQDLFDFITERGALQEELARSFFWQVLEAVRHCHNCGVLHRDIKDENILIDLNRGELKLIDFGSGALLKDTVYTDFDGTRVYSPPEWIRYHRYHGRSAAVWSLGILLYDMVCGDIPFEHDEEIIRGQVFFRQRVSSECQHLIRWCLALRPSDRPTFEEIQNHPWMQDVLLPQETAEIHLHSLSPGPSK

Biological target: Serine/threonine-protein kinase pim-1 (Homo sapiens, UniProt P11309)
Assay: Binding Assay: PIM-1, -2, and -3 enzymes were generated as fusion proteins expressed in bacteria and purified by IMAC column chromatography (Sun, X., Chiu, J. F., and He, Q. Y. (2005) Expert Rev. Proteomics, 2:649-657). A fluorescent-labeled Pim-specific peptide substrate, was custom synthesized by American Peptide Company (Sunnyvale, Calif.). Reaction Buffer contained 10 mM HEPES, pH 7.2, 10 mM MgCl2, 0.01% Tween 20, 2 mM DTT. Termination Buffer contained 190 mM HEPES, pH 7.2, 0.015% Brij-35, 0.2% Coating Reagent 3 (Caliper Life Sciences, Hopkinton, Mass.), 20 mM EDTA. Separation Buffer contained 100 mM HEPES, pH 7.2, 0.015% Brij-35, 0.1% Coating Reagent 3, 1:200 Coating Reagent 8 (Caliper Life Sciences, Hopkinton, Mass.), 10 mM EDTA and 5% DMSO.

Cn1ncc(NC(=O)c2nc(Br)cnc2N)c1N1CCC[C@H](N)C1
Ki: 38.8 nM
